Substitutions are numbered along the chain they refer to.
Legend:
GIPR = target: T1, GIPR (Homo sapiens, UniProt P48546); test: Homologous radioligand competition binding, parental HEK293A cells; details: GIPR compared with GLP-1R; N = 3
T1 construct: host or cells: parental HEK293A cells and β-arrestin 1/2 KO HEK293A cells, transient calcium phosphate transfection

GIPR R43G = target: T2, GIPR R43G (Homo sapiens, UniProt P48546, R43G); details: GIPR R43G (ECD), mean, n = 5, duplicate
T2 sequence (P48546 22-466 R43G): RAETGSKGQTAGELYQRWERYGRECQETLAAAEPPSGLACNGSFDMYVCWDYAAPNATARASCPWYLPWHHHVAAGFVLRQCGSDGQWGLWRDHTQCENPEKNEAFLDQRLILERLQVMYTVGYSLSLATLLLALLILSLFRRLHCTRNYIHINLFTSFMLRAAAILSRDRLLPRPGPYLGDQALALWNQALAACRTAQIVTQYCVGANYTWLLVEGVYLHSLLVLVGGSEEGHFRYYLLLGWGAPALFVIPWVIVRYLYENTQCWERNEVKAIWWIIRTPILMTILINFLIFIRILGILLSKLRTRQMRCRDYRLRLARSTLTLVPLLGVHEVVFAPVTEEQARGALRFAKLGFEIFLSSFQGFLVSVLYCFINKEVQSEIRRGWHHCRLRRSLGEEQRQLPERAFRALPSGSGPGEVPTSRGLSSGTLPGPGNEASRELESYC

GIPR Y73H = target: T3, GIPR Y73H (Homo sapiens, UniProt P48546, Y73H); details: GIPR Y73H (ECD), mean, n = 5, duplicate
T3 sequence (P48546 22-466 Y73H): T2 sequence (P48546 22-466 R43G) with G22R, Y52H

GIPR I221M = target: T4, GIPR I221M (Homo sapiens, UniProt P48546, I221M); details: GIPR I221M (3.34), mean, n = 3, duplicate
T4 sequence (P48546 22-466 I221M): T2 sequence (P48546 22-466 R43G) with G22R, I200M

GIPR I378M [1] = target: T5, GIPR I378M (Homo sapiens, UniProt P48546, I378M)
T5 sequence (P48546 22-466 I378M): T2 sequence (P48546 22-466 R43G) with G22R, I357M

GIPR E461* = target: T6, GIPR E461* (Homo sapiens, UniProt P48546); details: HEK293A, 1 µM GIP minus vehicle, n = 4, P = 0.0034
T6 sequence (P48546 22-460 limits assumed): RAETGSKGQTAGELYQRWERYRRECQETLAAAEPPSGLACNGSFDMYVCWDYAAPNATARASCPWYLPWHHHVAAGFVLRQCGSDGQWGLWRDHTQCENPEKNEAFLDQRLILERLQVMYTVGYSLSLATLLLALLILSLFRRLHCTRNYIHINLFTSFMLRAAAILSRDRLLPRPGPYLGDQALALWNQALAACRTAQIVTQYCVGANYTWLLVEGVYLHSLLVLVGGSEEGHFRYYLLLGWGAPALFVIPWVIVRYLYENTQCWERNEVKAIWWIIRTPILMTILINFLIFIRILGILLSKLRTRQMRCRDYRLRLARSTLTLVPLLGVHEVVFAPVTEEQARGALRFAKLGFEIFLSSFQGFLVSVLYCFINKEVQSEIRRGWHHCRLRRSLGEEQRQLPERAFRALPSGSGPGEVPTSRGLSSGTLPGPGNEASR

GIPR I378M [2] = target: T5, GIPR I378M; test: cAMP accumulation; assay type: cell-based; set-up: host or cells: HEK293

glucose-dependent insulinotropic polypeptide [GIP]
Receptor surface expression (Bmax) (GIPR): to the same extent
logEC50 (Arrestin) (GIPR R43G; Hill slope 1.0): -9.1
Arrestin (Emax) (GIPR R43G; normalized to WT GIPR): 48
logEC50 (Arrestin) (GIPR Y73H; Hill slope 1.0): -9.1
Arrestin (Emax) (GIPR Y73H; normalized to WT GIPR): 132
logEC50 (Arrestin) (GIPR I221M; Hill slope 1.0): -9.4
Arrestin (Emax) (GIPR I221M; normalized to WT GIPR): 20
logEC50 (Arrestin) (GIPR I378M [1]; GIPR I378M (7.43), Hill slope 1.0, mean, n = 3, duplicate): -9.1
Arrestin (Emax) (GIPR I378M [1]; GIPR I378M (7.43), normalized to WT GIPR, mean, n = 3, duplicate): 136
β-arrestin recruitment class (GIPR I378M [1]; I378M (GoFarr)): more β-arrestin recruitment
Mean of ΔBRET (GIPR E461*): 0.1591
cAMP production class (GIPR I378M [2]): WT-like cAMP production
cAMP (Emax) (GIPR I378M [2]; HEK293, GIP(1–42) 1 pM–100 nM, 30 min 37 °C, mean of n = 3): 78 % of WT GIPR activity
logEC50 (cAMP) (GIPR I378M [2]; HEK293, Hill slope 1.0, mean of n = 3): -11.1

Source: paper PMC11272584 (Nature Metabolism, 2024)
